# Key:
# Amino acid sequences for entries named in this document (tags omitted).
# UniProt P09619, whole entry: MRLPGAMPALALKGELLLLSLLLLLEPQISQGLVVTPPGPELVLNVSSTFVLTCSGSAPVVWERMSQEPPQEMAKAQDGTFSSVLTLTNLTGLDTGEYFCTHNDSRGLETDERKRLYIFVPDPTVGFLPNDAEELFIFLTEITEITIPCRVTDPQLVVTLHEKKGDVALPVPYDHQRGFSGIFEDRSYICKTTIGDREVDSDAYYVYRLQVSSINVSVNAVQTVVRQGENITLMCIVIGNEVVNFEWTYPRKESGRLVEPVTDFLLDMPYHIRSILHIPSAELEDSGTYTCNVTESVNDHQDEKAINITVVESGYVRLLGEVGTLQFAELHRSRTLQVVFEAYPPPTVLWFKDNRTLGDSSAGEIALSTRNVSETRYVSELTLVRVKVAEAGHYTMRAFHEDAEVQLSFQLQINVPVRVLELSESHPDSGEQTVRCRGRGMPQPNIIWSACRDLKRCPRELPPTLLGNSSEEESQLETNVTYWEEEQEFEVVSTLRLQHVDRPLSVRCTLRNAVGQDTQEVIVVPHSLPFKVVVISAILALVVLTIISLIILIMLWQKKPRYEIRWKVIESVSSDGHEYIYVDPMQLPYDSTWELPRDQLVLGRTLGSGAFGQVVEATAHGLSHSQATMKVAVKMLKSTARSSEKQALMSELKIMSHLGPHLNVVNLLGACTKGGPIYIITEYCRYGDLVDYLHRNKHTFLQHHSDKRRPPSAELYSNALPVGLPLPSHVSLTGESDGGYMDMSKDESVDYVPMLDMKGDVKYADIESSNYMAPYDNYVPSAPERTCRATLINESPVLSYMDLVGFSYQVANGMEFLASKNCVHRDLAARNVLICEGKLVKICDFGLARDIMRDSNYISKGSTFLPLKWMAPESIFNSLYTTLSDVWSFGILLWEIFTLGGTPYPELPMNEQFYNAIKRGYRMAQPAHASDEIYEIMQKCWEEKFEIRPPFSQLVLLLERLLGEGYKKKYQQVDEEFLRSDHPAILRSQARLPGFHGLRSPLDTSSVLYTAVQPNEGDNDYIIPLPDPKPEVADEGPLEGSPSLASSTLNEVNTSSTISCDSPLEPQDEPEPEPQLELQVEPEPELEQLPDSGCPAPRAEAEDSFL
# [1] = molecular target: T1, Platelet-derived growth factor receptor beta (Homo sapiens, UniProt P09619); experiment: Ratio of erlotinib IC50 to compound IC50 for PDGFRbeta in human SF539 cells pretreated for 60 mins measured after 1 hr by ELISA; type: cell-based; conditions: SF-539
# [2] = molecular target: T1, Platelet-derived growth factor receptor beta; experiment: Ratio of sunitinib IC50 to compound IC50 for PDGFRbeta in human SF539 cells pretreated for 60 mins measured after 1 hr by ELISA; type: cell-based; conditions: SF-539
structure (smiles),measurement,setting,value
Nc1nc2c(c(Nc3ccc(F)cc3)n1)-c1ccccc1C2,Ratio IC50,[1],1.5
same,Ratio IC50,[2],10

# From ChEMBL document CHEMBL2046359, “Novel tricyclic indeno[2,1-d]pyrimidines with dual antiangiogenic and cytotoxic activities as potent antitumor agents” (Bioorg Med Chem, 2012)
